For the experiment, the target named is human VR1 (Homo sapiens, UniProt Q8NER1). The experiment is described as follows: Inhibition of Ca2+ entry in cells caused by proton, in rat glioma (C6BU1) cells stably expressing human VR1 (Fura 2 fluorescence). The following applies: inhibition of proton-induced Ca2+ entry. As for the experimental part: The assay for evaluation of VR1 inhibition by the inventive compounds will be described below. The assay was intended to evaluate in vitro inhibition of Ca^2+ entry in cells caused by proton, one of the VR1 agonists.
Rat glioma (C6BU1) cells stably expressing human VR1 were suspended in 20 mM MES buffer (at pH 6.8, contg. 20 mM 2-morpholinoethanesulfonate (referred to as MES hereinafter), 115 mM NaCl, 5 mM KCl, 1 mM MgCl2 and 14 mM D-glucose) to make a cell density of 1×10^6 cells/mL. A fluorescent dye, Fura 2-AMsolution (DojindoCorporate, Cat. No. 343-05401) was added to the suspension to make a 5 μM concentration thereof. Further, Pluronic F-127 (Wako Pure Chemical Industries, Ltd., Cat. No. P6866) was added to make a 0.1% content thereof. Then, the suspension was incubated at 37° C. for 30 min. The cells were harvested and washed three times with 20 mM MES buffer. The cells were suspended again to make a cell density of 5×10^5 cells/mL. A 500-μL portion of the suspension was taken with a cuvette (MC MEDICAL, INC., Cat. No. SSR3121), to which 10 μL of 20 mM MES buffer containing 250 mM CaCl2 was added to incorporate Ca^2+ into the cells. […] The activity of the test compound was determined as a difference between the minimum of fluorescence intensity before agonist stimulation and its maximum after the stimulation. […]

The chains behind the UniProt entries cited, without tags or fusion partners.
UniProt Q8NER1, whole entry: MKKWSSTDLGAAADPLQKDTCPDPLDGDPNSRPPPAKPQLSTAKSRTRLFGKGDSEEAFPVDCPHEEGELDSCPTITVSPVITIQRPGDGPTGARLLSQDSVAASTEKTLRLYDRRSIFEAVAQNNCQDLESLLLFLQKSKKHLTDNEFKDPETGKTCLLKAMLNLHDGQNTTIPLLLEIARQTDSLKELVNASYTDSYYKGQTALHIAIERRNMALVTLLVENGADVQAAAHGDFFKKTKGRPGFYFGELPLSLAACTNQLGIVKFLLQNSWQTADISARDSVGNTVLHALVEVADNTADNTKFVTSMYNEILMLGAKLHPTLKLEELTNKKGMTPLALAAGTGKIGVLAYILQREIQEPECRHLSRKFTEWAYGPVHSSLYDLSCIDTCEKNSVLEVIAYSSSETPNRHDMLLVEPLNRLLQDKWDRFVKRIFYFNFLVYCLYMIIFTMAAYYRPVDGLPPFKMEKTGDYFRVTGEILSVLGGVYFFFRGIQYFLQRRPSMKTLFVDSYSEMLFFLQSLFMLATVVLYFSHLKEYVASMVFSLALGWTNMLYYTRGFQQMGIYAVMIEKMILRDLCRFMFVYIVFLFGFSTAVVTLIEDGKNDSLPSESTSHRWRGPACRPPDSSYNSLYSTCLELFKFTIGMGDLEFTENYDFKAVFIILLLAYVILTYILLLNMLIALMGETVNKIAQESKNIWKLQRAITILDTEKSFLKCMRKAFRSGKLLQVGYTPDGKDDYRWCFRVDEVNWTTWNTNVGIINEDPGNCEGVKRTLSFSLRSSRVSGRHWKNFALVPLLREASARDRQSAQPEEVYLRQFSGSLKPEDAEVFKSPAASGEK

One may read the IC50 as the midpoint of a concentration-inhibition curve. A higher IC50 goes with lower potency.

The compound `CC(C)(O)c1ccc(NC(=O)c2cccc3c2OCCN3c2ncccc2Cl)cc1` came in with an IC50 of 100 to 1000 nM.

For the origin of these results see US8008292B2, “Condensed benzamide compounds and inhibitors of vanilloid receptor subtype 1 (VR1) activity” (Japan Tobacco Inc., priority 2004, dated 2011).
